The text below walks through data of patent publication US10081660B2, “Polynucleotide, polypeptide with immunosuppressive activity, expression cassette, expression vector, host cell, pharmaceutical composition, methods for producing a polypeptide with immunosuppressive activity and for preventing or treating conditions that require immunosuppression, and use of a …” (FUNDAÇÃO BUTANTAN, priority 2013, dated 2018).

The experiment deals with HIII mice. Kind of experiment: Immunosuppressive activity against soluble antigen (human gamma globulin, HGG), anti-HGG antibodies by ELISA. It is filed as in vivo. The procedure:
For the invention's polypeptide immunosuppressive activity analysis, Lineage HIII mice constitutively known as good responder to of antibody production are inoculated, intraperitoneally, and immunized with structurally complex and highly immunogenic antigens, such as sheep erythrocytes, a particulate antigen. The animals' serum is then analyzed regarding its hemagglutination activity: the lower is the hemagglutinating effect; the higher is the immunosuppressive capacity of the evaluated compound. The immunosuppressive activity can also be evaluated against a soluble antigen, such as human gamma globulin (HGG), adsorbed in aluminum hydroxide, and the antibodies titer determined by ELISA.
The immunosuppressive activity of the recombinant polypeptide was also tested for soluble antigens. […] Titers were determined by ELISA and calculated considering the highest dilution of experimental sera whose O.D. (optical density) was five times higher than those obtained for normal serum at the same dilution. […]
The immunosuppressive activity of the synthetic polypeptide P2 (SEQ ID NO: 5) and P6 (SEQ ID NO: 9) was evaluated against HGG, taking into account immunosuppression time after preventive treatment and antigen inoculation. […] O.D. values obtained from the 1:500 dilution were presented herein as average+standard deviation and were statistically analyzed by Student t test. […]
On the technique in general: An ELISA detects its analyte on a solid surface through an enzyme-linked reagent.

B1: recombinant polypeptide: SEQ ID NO: 2 plus six histidine residues, T7 phage protein 10 portion and enterokinase site; approximately 30 kDa, expressed in E. coli (protein)
chain: MRGSHHHHHHGMASMTGGQQMGRDLYDDDDKDRWGSELFSQKYIELVVVADHGMFTKYNGNLNTIRTRVHEIVNTLNGFYRSLNIHISLTDLEIWSNQDLINVQSAAADTLKTFGEWRERVLLNRISHDNAQLLTAIDLADNTIGIAYTGGMCYPKNSVGIVQDHSPKTLLIAVTMAHELGHNLGMKHDENHCHCSASFCIMPPSLSEGPSYEFSDCSKDYYEMFLTKRKPQCILNKPWYHGIRSLIRLLTKPERKLSWLLPPLSNN
Regarding B1, the “suppression of anti-HGG antibody production” value (50 μg intraperitoneally, HGG on Al(OH)3 (10 μg/animal) after 0, 24 or 72 hours) was “induced in a prophylactic and antigen-specific manner until 24 hours after the treatment”. Besides, the “inhibition of anti-HGG antibody production” value (P6 3 μg/animal or recombinant polypeptide 50 μg/animal, HGG in Al(OH)3 after 24 hours) was “inhibition of anti-HGG antibody production”.
